Assay outcomes deposited in PubChem by Broad Institute.
Most compounds without a hit are left out; they make up all but 1.8% or so of the library.
E-sel inducer: E-selectin induction in HUVECs, primary screen, imaging, HUVEC, immunofluorescence imaging, single point; AID 686992, 2013; activation, % at 7.58 µM; 260,000 compounds, 0.37% hits; normalized: neutral wells 0, TNF-alpha wells 100; P16581;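 active means mean E-selectin-positive cell signal at least 10% of the positive control, reached in at least 60% of replicates, without over 20% cell loss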
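Assay system: HUVEC primary endothelial cells. Input: 3,000 HUVEC seeded per well. Doses: one compound dose added by pin transfer. Read-out basis: % PE-positive cells. Benchmarks: TNF-alpha high, DMSO low. Detection: immunofluorescence imaging. Buffer or medium: EGM-2, gelatin.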
Yeast UUG start: alters start codon recognition fidelity in yeast; S. cerevisiae UUG-firefly luciferase reporter, luminescence/redox ratio; activity score, % at 18.7 µM; actives 0.13% (n = 350,000); AID 602363;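 active = replicate mean at a twofold rise or more, about +100% in these data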;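 also: firefly luciferase made from a UUG start codon reports start codon fidelity; reporter light over untreated wells divided by growth signal over untreated wells; some hits fall short of that in this replicate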
DENV2 CPE: inhibitors of DENV2 cytopathic effect, primary screen, cell-based, plate reader, single concentration; DENV2-infected cells, cytopathic effect rescue; CPE inhibition, % at 9.99 µM; 350,000 compounds, 1.7% hits; AID 651640, 2012; in the data active means CPE inhibition above about 20%, passing the limit was not always enough; tested in BHK-21 cells
Cneo AK release: Cryptococcus neoformans cell lysis inducers, primary screen, AK release luminescence, single concentration; C. neoformans lysis, adenylate kinase release luminescence, 4 h; normalised: neutral wells 0, clomiphene wells 100; lysis activity, % at 15 µM; 360,000 compounds, 0.2% hits; AID 651654, 2012;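 active means mean lysis activity across replicates of at least 80%, whatever share of replicates individually reach that level; inactive means mean lysis activity below 80%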
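Material – log-phase Cryptococcus neoformans yeast cells · Input – 5 × 10^6 yeast cells/mL · Medium – fresh YPD growth medium · Doses – single compound concentration per well · Timing – static 4 h at 37 °C with compound, 1 h detection · Detection – adenylate kinase release luminescence · Read-out – signal increase indicating cell lysis · Control set – Clomiphene as positive lysis control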
Numbers stand for hits; . = inactive; / = no result; ! = a repeat was not active.

SMILES	E-sel inducer	Yeast UUG start	DENV2 CPE	Cneo AK release
O=C(C[C@@H]1CC[C@H](NC(=O)Nc2ccc3c(c2)OCO3)[C@@H](CO)O1)NCCCN1CCOCC1	.	/	.	.
COc1ccc(-n2cc(CNCCc3nc(C)cc(C)n3)c(-c3ccccc3Cl)n2)cc1	/	.	.	93.7
COc1ccc(S(=O)(=O)N(C)C[C@@H]2Oc3c(NS(=O)(=O)c4ccc(C)cc4)cccc3C(=O)N([C@H](C)CO)C[C@H]2C)cc1	.	/	43.3	.
C[C@H](CO)N1C[C@H](C)[C@@H](CN(C)S(=O)(=O)c2ccc(Cl)cc2)Oc2c(NS(=O)(=O)c3ccc(F)cc3)cccc2C1=O	.	.	.	126.6
C[C@H]1CN([C@@H](C)CO)C(=O)c2cccc(NS(=O)(=O)c3ccc(F)cc3)c2O[C@H]1CN(C)S(=O)(=O)c1cccs1	235.0	.	.	.
Cc1ccc(S(=O)(=O)N(C)C[C@H]2Oc3c(NS(=O)(=O)c4ccc(Cl)cc4)cccc3C(=O)N([C@@H](C)CO)C[C@H]2C)cc1	.	.	74.4	.
C[C@@H]1CN([C@H](C)CO)C(=O)Cc2cc(NS(=O)(=O)c3ccccc3)ccc2O[C@@H]1CN(C)C(=O)Nc1ccccc1	.	.	.	.
OC[C@@H]1CC[C@@H]2O[C@H](CCc3ccc(C#CCc4ccccc4)cc3)[C@@H](n3cc(-c4ccccc4)nn3)C[C@@H]2O1	/	/	.	/
O=C(C1CC1)N1CC2(C1)[C@H](c1ccccc1)[C@@H](CO)N2CC1CCCC1	.	/	.	/
CCNC(=O)C[C@H]1CC[C@H]2[C@@H](COc3ccc(NC(=O)Nc4ccccc4F)cc3C(=O)N2C)O1	.	.	/	.
COc1ccc(C(CC(=O)N2CCCCC2)c2c(OC)cc(OC)c3c(-c4ccccc4)cc(=O)oc23)cc1 (stereo not given)	.	.	71.5	.
COc1ccc(C(CCN2CCOCC2)c2c(OC)cc(OC)c3c(C)cc(=O)oc23)cc1 (stereo not given)	.	.	55.8	.
COc1ccc(C(CC(=O)N2CCCC2)c2c(OC)cc(OC)c3c(-c4ccccc4)cc(=O)oc23)cc1 (stereo not given)	.	.	.	.
COc1cc(C(CCN2CCOCC2)c2c(OC)cc(OC)c3c(C)cc(=O)oc23)cc(OC)c1OC (stereo not given)	.	.	/	.
CC(=O)c1sc(NC(=O)c2cc(-c3ccccc3)nn2-c2ccccc2)nc1C	.	.	.	81.0
O=C(Nc1nc2ccccc2s1)c1cc(-c2ccccc2)nn1-c1ccccc1	/	.	.	.
C[C@H](CO)N1C[C@H](C)[C@@H](CN(C)C(=O)Nc2ccc3c(c2)OCO3)Oc2c(NS(=O)(=O)c3ccccc3)cccc2C1=O	.	.	28.3!	.
C[C@@H]1CN([C@H](C)CO)C(=O)c2cccc(NS(=O)(=O)c3ccc(F)cc3)c2O[C@@H]1CN(C)C(=O)Nc1ccc2c(c1)OCO2	.	.	24.1	.
CO[C@H]1CN(C)C(=O)c2cc(NC(=O)c3ccccc3F)ccc2OC[C@H](C)N(C)C[C@@H]1C	.	.	.	.
O=C(C[C@H]1CC[C@@H]2[C@H](COC[C@@H](O)CN2C(=O)Nc2ccc(C(F)(F)F)cc2)O1)NCC1CCCCC1	.	/	.	.
CN(C)c1ccc(-c2cc3ccccc3c(=O)o2)cc1	/	.	113.5	.
COc1ccc(-c2cc3ccccc3c(=O)o2)cc1	.	/	.	/
C[C@H](CO)N1C[C@H](C)[C@@H](CN(C)S(=O)(=O)c2cccs2)OCCCC[C@H](C)Oc2ccc(NS(=O)(=O)c3ccc(F)cc3)cc2C1=O	/	.	.	.
CC(=O)N1[C@@H]2CN(S(=O)(=O)c3ccccc3F)c3ccccc3[C@@H]2[C@@H]1CO	.	.	.	91.9
CCCNC(=O)N1C[C@@H]2[C@H](c3ccccc31)[C@H](CO)N2C(=O)c1ccncc1	.	.	24.6	.
O=C(c1ccccc1F)N1C[C@H]2[C@@H](c3ccccc31)[C@H](CO)N2C(=O)c1ccncc1	.	.	21.9	.
O=C(c1ccccc1F)N1C[C@@H]2[C@H](c3ccccc31)[C@H](CO)N2C(=O)c1ccncc1	.	.	.	.
COCC(=O)N1C[C@@H]2[C@H](c3ccccc31)[C@@H](CO)N2C(=O)c1ccccc1F	.	.	40.9	.
CCCNC(=O)N1C[C@H]2[C@@H](c3ccccc31)[C@H](CO)N2C(=O)c1ccncc1	.	.	.	.
